{
  "sequences": {"note": "By UniProt entry, the sequences of proteins in these tests, tags left out. Residues count along the entry.", "UniProt P36894, 24-532 limits assumed": "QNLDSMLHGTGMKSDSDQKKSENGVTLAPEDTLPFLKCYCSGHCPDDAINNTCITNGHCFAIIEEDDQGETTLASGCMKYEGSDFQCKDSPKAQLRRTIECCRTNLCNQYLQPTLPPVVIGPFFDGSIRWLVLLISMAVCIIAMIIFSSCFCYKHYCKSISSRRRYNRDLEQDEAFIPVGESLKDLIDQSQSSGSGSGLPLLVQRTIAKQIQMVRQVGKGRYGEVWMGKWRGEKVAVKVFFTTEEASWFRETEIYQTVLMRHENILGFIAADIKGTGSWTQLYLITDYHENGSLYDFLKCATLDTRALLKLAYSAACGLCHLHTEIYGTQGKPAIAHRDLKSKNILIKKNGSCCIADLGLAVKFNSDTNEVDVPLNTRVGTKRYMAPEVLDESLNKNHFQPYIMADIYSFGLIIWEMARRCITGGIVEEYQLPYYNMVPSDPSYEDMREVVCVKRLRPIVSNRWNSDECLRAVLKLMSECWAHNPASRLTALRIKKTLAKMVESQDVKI", "UniProt O00238, 14-502 limits assumed": "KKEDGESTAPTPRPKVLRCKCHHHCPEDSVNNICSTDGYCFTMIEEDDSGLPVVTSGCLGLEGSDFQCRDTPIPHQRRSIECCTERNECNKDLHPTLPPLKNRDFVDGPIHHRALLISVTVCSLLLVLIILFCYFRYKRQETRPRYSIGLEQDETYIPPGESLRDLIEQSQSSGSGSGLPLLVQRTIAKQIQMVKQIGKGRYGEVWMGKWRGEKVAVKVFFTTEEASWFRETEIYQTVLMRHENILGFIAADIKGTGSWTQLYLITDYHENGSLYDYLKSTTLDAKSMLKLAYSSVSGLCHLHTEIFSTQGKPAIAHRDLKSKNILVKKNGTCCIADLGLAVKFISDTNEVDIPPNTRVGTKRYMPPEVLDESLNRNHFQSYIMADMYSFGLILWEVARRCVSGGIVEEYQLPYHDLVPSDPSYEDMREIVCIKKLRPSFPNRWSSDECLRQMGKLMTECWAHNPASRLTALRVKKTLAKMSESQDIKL", "UniProt Q04771, 21-509 limits assumed": "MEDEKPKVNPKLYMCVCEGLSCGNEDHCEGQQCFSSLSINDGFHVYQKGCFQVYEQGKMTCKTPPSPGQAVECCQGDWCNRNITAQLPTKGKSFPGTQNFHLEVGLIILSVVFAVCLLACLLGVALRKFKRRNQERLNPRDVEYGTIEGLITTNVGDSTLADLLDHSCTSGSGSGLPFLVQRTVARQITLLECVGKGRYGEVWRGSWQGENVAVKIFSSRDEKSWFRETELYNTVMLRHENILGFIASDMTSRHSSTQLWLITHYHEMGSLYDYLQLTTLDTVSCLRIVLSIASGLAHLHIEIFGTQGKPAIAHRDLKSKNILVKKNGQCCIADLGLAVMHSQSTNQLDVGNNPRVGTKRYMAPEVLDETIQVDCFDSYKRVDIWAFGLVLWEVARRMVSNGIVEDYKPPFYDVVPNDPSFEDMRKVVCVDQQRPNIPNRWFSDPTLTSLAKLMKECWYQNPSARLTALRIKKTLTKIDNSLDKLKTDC"},
  "source": "patent US10954216B2",
  "about": "“BMP-signal-inhibiting compound” (RIKEN, priority 2016, dated 2021)",
  "key": {"human ALK3": {"target": "human ALK3 (Homo sapiens (Human), UniProt P36894)", "assay": "ALK3 enzyme inhibitory effect (33P-ATP kinase assay, Reaction Biology)", "type": "biochemical", "settings": "ALK3, test compound 300 nM"}, "human ALK6": {"target": "human ALK6 (Homo sapiens (Human), UniProt O00238)", "assay": "ALK6 enzyme inhibitory effect (33P-ATP kinase assay, Reaction Biology)", "type": "biochemical", "settings": "ALK6, test compound 300 nM"}, "human ALK2": {"target": "human ALK2 (Homo sapiens (Human), UniProt Q04771)", "assay": "ALK2 enzyme inhibitory effect (33P-ATP kinase assay, Reaction Biology)", "type": "biochemical", "settings": "ALK2, 10 μM ATP, 20 μM casein"}, "[1]": {"test_system": "BMP signal in MDA-231-D-BREFluc/Rluc cells", "assay": "BMP signal inhibitory effect (AlphaScreen SureFire SMAD1 p-Ser463/465, BMP-6 stimulation)", "type": "cell-based", "settings": "BMP-6 stimulated MDA-231-D-BREFluc/Rluc cells, phospho-SMAD1 AlphaScreen", "procedure": "BMP Signal Inhibitory Effect\nA BMP signal inhibitory activity of a compound of the present invention was evaluated according to the following method.\nMDA-231-D-BREFluc/Rluc cells prepared according to the method described in Y. Katsuno et al., Oncogene, 27, 6322 (2008) were incubated at 37° C. for 2 hours together with test compounds, and BMP-6 (commercially available from R&D System, 507-BM-020) was then added thereto, and the mixture was additionally incubated at 37° C. for 30 minutes. A Lysis Buffer and Acceptor mix of AlphaScreen SureFire SMAD1 (p-Ser463/465) assay kit (commercially available from Perkin Elmer, TGRSM1S10K) were sequentially added thereto, the mixture was incubated at room temperature for 2 hours, and AlphaScreen Protein A kit (commercially available from Perkin Elmer, 6760617) was then added thereto, and standard AlphaScreen settings of Alpha Technology—compatible plate reader (commercially available from Perkin Elmer, EnSpire) was used for measurement."}},
  "data": [
    {"smiles": "CCn1cc(-c2ccnc(Nc3ccc(-n4cncn4)cc3)n2)c(-c2cccnc2)n1", "values": [
      {"measurement": "Inhibition rate at 300 nM", "setting": "human ALK3", "value": 53.3, "unit": "%"},
      {"measurement": "Inhibition rate at 300 nM", "setting": "human ALK6", "value": 88.9, "unit": "%"},
      {"measurement": "IC50", "setting": "human ALK2", "value": 26.4, "unit": "nM"},
      {"measurement": "IC50", "setting": "[1]", "value": 16.4, "unit": "nM"}
    ]}
  ]
}
